Experimental data from EP2710378B1, “METHOD TO PROGNOSE VIRAL INFECTION BY MEASURING T CELL RESPONSE OR AUTO-ANTIBODIES TO APOPTOTIC EPITOPES” (Università degli Studi di Roma "La Sapienza", priority 2011, dated 2012).
Read-outs that look alike come from different tables or passages of the source.

Legend:
A*0206 = A*0206 (Homo sapiens, UniProt P04439, D140Y/D185E/D98H/E176V/E277Q/F33Y/G131W/G231S/I119V/I121R/I166T/I218V/L300P/L318F/N151K/N90K/P208A/P217A/Q86G/Q94H/R138H/R169H/T345S); test: HLA-A2 binding affinity of synthetic peptides (A*0206)
A*0201 = A*0201 (Homo sapiens, UniProt P04439, D140Y/D185E/D98H/E176V/E277Q/G131W/G231S/I119V/I121R/I166T/I218V/L300P/L318F/N151K/N90K/P208A/P217A/Q86G/Q94H/R138H/R169H/T345S); test: HLA-A2 binding affinity of synthetic peptides (A*0201)
A*0202 = A*0202 (Homo sapiens, UniProt P04439, D140Y/D185E/D98H/E176V/E277Q/G131W/G231S/I119L/I121R/I166T/I218V/L180W/L300P/L318F/N151K/N90K/P208A/P217A/Q67R/Q86G/Q94H/R138H/R169H/T345S); test: HLA-A2 binding affinity of synthetic peptides (A*0202)
A*0203 = A*0203 (Homo sapiens, UniProt P04439, A173T/D140Y/D185E/D98H/E277Q/G131W/G231S/I119V/I121R/I166T/I218V/L180W/L300P/L318F/N151K/N90K/P208A/P217A/Q86G/Q94H/R138H/R169H/T345S); test: HLA-A2 binding affinity of synthetic peptides (A*0203)
A*6802 = A*6802 (Homo sapiens, UniProt P04439, A269V/D140Y/D185E/E176V/E277Q/E87N/F33Y/G231S/I121R/I166T/I218V/L180W/L300P/L318F/N151K/P208A/P217A/Q86R/R138H/R169H/S129P/T345S/V36M); test: HLA-A2 binding affinity of synthetic peptides (A*6802); settings: read-out: Binding capacity (IC50§ nM) A*6802; 50% inhibitory nanomolar concentration

CC[C@H](C)[C@H](NC(=O)CNC(=O)[C@H](Cc1c[nH]cn1)NC(=O)[C@H](CCC(=O)O)NC(=O)[C@@H](NC(=O)[C@@H]1CCCN1C(=O)[C@H](Cc1ccc(O)cc1)NC(=O)[C@H](CCCCN)NC(=O)[C@H](CC(C)C)NC(=O)[C@@H](N)[C@@H](C)O)[C@@H](C)CC)C(=O)O [compound 6]
IC50 (A*0206; read-out: Binding capacity (IC50§ nM) A*0206, 50% inhibitory nanomolar concentration): 26400 nM

CC[C@H](C)[C@H](NC(=O)CNC(=O)CNC(=O)[C@H](C)NC(=O)[C@@H](NC(=O)[C@@H](N)CO)[C@@H](C)CC)C(=O)N[C@H](C(=O)NCC(=O)N[C@H](C(=O)O)C(C)C)[C@@H](C)CC [compound 14]
IC50 (A*0201): 0.56 nM | IC50 (A*0202): 1 nM | IC50 (A*0203): 1.1 nM | IC50 (A*0206): 0.14 nM

CC[C@H](C)[C@H](NC(=O)[C@H](CCC(N)=O)NC(=O)[C@H](CCC(=O)O)NC(=O)[C@H](CCCCN)NC(=O)[C@H](Cc1ccc(O)cc1)NC(=O)[C@H](CC(C)C)NC(=O)[C@@H](N)CCC(N)=O)C(=O)N[C@@H](C)C(=O)N[C@@H](CCCCN)C(=O)N[C@@H](CC(C)C)C(=O)O [compound 87]
IC50 (A*0201; read-out: Binding capacity (IC50§ nM) A*0201, 50% inhibitory nanomolar concentration): 78 nM | IC50 (A*0202; read-out: Binding capacity (IC50§ nM) A*0202, 50% inhibitory nanomolar concentration): 4.6 nM | IC50 (A*0203; read-out: Binding capacity (IC50§ nM) A*0203, 50% inhibitory nanomolar concentration): 16 nM | IC50 (A*6802): 9150 nM
